uPA generation: blocks generation of uPA at the cell surface | cell surface uPA generation assay, qHTS | Potency, µM (highest dose often 38.3 µM), inactives show top-dose activity change, negative = inhibition, usual class: inhibitors | hit rate 0.31% among 330,000 | AID 540303; active = well fitted inhibition curve with a large enough effect; inconclusive = small, poorly fitted or top-dose-only effect; inactive = no such curve, though single readings can be large or run the other way; tested in mouse RAW 264.7 cells; also: potency is read from the fitted curve at half-maximal effect; % is scaled to controls: 0 for no effect and ±100 for the full control effect; nearly all actives have a fitted effect of over 55% in size
miR-21 reporter: raises the signal of a miR-21 reporter; AID 2288; 340,000 tested, under 10 active; Potency, µM (doses to about 38.3 µM), inactives show at the top dose reporter change, positive = more light; HeLa miR-21 FLuc reporter, luciferase, 48 h; active = well fitted rising curve with a large enough effect; inconclusive = small, poorly fitted or top-dose-only effect; inactive = no such curve, though single readings can be large or run the other way;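 note: % of control where 0% means no effect; miR-21 action dims this reporter so a rising signal means less miR-21 action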
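Compounds were titrated across several concentrations (up to approximately 40 uM) and incubated 48 hours with HeLa miR-21-FLuc reporter cells (miR-21 target sequence downstream of FLuc, endogenous miR-21). Readout was firefly luciferase luminescence after lytic detection reagent.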
TDP1 cell noCPT: qHTS for Inhibitors of human tyrosyl-DNA phosphodiesterase 1 (TDP1): qHTS in cells in absence of CPT; DT40 Tdp1-/- hTDP1 cells, no CPT, ATP luminescence, 48 h; hit rate 15% among 420,000; Potency, µM (titrated, usually from 46.2 µM), for inactives: top-dose activity change, negative = growth inhibition, most hits filed as inhibitors; also: potency is read from the fitted curve at half-maximal effect; % is scaled to controls: 0 for no effect and ±100 for the full control effect; nearly all actives have a fitted effect of over 55% in size
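Seeded 400 DT40-hTDP1 cells/well (vehicle DMSO, no 20 nM CPT); pinned compounds; ≥48 hr at 37 °C; CellTiter-Glo luminescence as viability measure.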
TDP1 cell CPT: growth inhibition of DT40 Tdp1-/-;hTDP1 cells with camptothecin (screen for TDP1 inhibitors) | chicken DT40 Tdp1-/-;hTDP1 cells + 20 nM CPT, ATP luminescence, 48 h | Potency, µM (highest dose often 46.2 µM), without a hit: at the highest dose activity change, negative = growth inhibition, hits mostly inhibitors | hit rate 12% among 420,000; also: potency is read from the fitted curve at half-maximal effect; % is scaled to controls: 0 for no effect and ±100 for the full control effect; nearly all actives have a fitted effect of over 55% in size
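Chicken DT40 Tdp1-/- cells stably complemented with human TDP1 were seeded at 400 cells/well in medium containing 20 nM camptothecin, exposed to pin-transferred compounds, and grown at 37 °C for at least 48 hr. Viability was read as ATP luminescence.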
TDP1 inh: blocks human tyrosyl-DNA phosphodiesterase 1 | Q9NUW8 | recombinant TDP1, AlphaScreen DNA substrate cleavage | Potency, µM (titrated, usually from 130 µM), without a hit: top-dose activity change, negative = inhibition, actives largely listed as inhibitors | hit rate 0.28% among 350,000 | AID 485290; also: potency is read from the fitted curve at half-maximal effect; % is scaled to controls: 0 for no effect and ±100 for the full control effect; nearly all actives have a fitted effect of over 40% in size
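Recombinant E. coli-expressed Tdp1 (1 nM) preincubated with compound 15 min at RT, then 5'-biotin/3'-phosphotyrosine-FITC DNA substrate (15 nM) added for 5 min. AlphaScreen beads (10 ug/ml) added, 10 min RT; tyrosine-FITC cleavage read as signal loss.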
The depositor's hits bear a star; ? = inconclusive; nt = not tested or not shown; [ ] = another dose, or the depositor's remark. Hits are enriched below; roughly 16% of the tested compounds scored in any of these assays. Unless noted, calls follow the shape of the dose curve; as a rule, active = well fitted curve in the direction sought with a large enough effect; inconclusive = small, poorly fitted or top-dose-only effect, or another doubt; inactive = no such curve, though single readings can be large; an effect the other way counts as inactive or inconclusive.

Assay codes – A = uPA generation; B = miR-21 reporter; C = TDP1 cell noCPT; D = TDP1 cell CPT; E = TDP1 inh
#1 Cc1ccc(C)c(N2CCN(C(=O)C3CCCN(S(=O)(=O)c4cccc5nsnc45)C3)CC2)c1 (stereo unspecified)
  A = nt	B = -3%	C = 7.3µM*	D = 5.8µM*	E = 0%

#2 Cc1nonc1-c1nc(-c2nonc2N)n[nH]1
  A = -3%	B = -4%	C = -2%	D = -6%	E = 0%

#3 CCCCCCCCCCCCCCCC(=O)O[C@@H]1[C@@H](O)[C@@H](O)[C@@H]([C@H](NC(=O)[C@@H]2C[C@@H](CCC)CN2C)[C@H](C)Cl)O[C@@H]1SC
  A = nt	B = nt	C = ?	D = 24µM*	E = nt

#4 CCCCn1c(O)c(C(C)=Nc2ccc(OCC)cc2)c(=O)[nH]c1=O
  A = 9%	B = -5%	C = 23µM*	D = 18µM*	E = 4%

#5 CCCCn1c(O)c(C(C)=NCCc2c[nH]c3ccccc23)c(=O)[nH]c1=O
  A = 11%	B = 11%	C = 16µM*	D = ?	E = 1%

#6 CCCCn1c(O)c(C(C)=Nc2cccc(C(=O)O)c2)c(=O)[nH]c1=O
  A = -2%	B = 0%	C = -5%	D = -8%	E = 4%

#7 Cc1cccc(C#N)c1
  A = -1%	B = nt	C = 3%	D = 18%	E = 1%

#8 CN1C[C@H](C(=O)NC2(C)OC3(O)[C@@H]4CCCN4C(=O)[C@H](Cc4ccccc4)N3C2=O)CC2c3cccc4[nH]cc(c34)C[C@H]21 (stereo partly specified)
  A = -18%	B = nt	C = 16µM*	D = 16µM*	E = nt

#9 CC(C)C[C@H]1C(=O)N2CCC[C@H]2[C@]2(O)O[C@](NC(=O)[C@@H]3C=C4c5cccc6[nH]cc(c56)C[C@H]4N(C)C3)(C(C)C)C(=O)N12
  A = -6%	B = nt	C = 16µM*	D = 21µM*	E = nt

#10 C=CCn1nc(C(=O)N2CCOCC2)cc1-c1sc(NC(=O)c2ccccc2)nc1C
  A = nt	B = nt	C = 10µM*	D = 15µM*	E = nt

#11 O=C(CN1CC(c2ccccc2)CC1=O)Nc1cccc(F)c1 (stereo unspecified)
  A = -6%	B = -4%	C = -6%	D = 3%	E = -3%

#12 O=C(CN1CC(c2ccccc2)CC1=O)Nc1ccc(F)cc1 (stereo unspecified)
  A = -51%	B = -5%	C = -15%	D = 2.9µM*	E = 0%

#13 CN(C)C(=O)O/N=C(\N)COc1ccc(C(C)(C)C)cc1
  A = ?	B = ?	C = ?	D = 21µM*	E = 3%

#14 CCOC(=O)C(O)(c1ccc(N(C)C(=O)COc2ccccc2)cc1)C(F)(F)F (stereo unspecified)
  A = 5%	B = nt	C = 0%	D = -9%	E = nt

#15 CC(C)C(=O)NC(Oc1ccccc1Cl)C(Cl)(Cl)Cl (stereo unspecified)
  A = 3%	B = -1%	C = -16%	D = -23%	E = 5%

#16 Cc1ccc(NC(=O)c2cc(-c3cc(Cl)ccc3C)n[nH]2)cc1NS(C)(=O)=O
  A = nt	B = nt	C = ?	D = 23µM*	E = nt

#17 CCCc1nc(SC)ncc1C(=O)Nc1ccc(Cl)cc1C(=O)c1ccccc1
  A = nt	B = 0%	C = 23µM*	D = ?	E = 6%

#18 CCc1nc(SC)ncc1C(=O)Nc1ccc(Cl)cc1C(=O)c1ccccc1
  A = nt	B = -7%	C = ?	D = -1%	E = 4%

#19 CC(=O)OC1CC[C@]2(C)C(CCC3C2CC[C@]2(C)C(C4=CC(=O)OC4)C(OC(C)=O)CC32O)C1 (stereo partly specified)
  A = nt	B = nt	C = ?	D = -18%	E = 8%[56.1 µM]

#20 CC(=O)OC1CCC23C(=O)OC45CCC(C6=CC(=O)OC6)C4(C)CCC2C5CCC3(O)C1 (stereo unspecified)
  A = nt	B = nt	C = 10µM*	D = 12µM*	E = 9%[56.1 µM]

#21 CCC(C)N1CCN(C(=O)COc2ccc3ccccc3c2)CC1 (stereo unspecified)
  A = -1%	B = -7%	C = ?	D = ?	E = 6%

#22 O=C(NCCN1CCC(n2c(=O)[nH]c3ccccc32)CC1)c1ccc2ccccc2c1
  A = nt	B = nt	C = ?	D = 23µM*	E = nt

#23 COc1ccc(C(=O)Nc2ccc(-c3nc4ccccc4s3)cc2C)cc1Cl
  A = nt	B = -40%	C = -29%	D = ?	E = 7%

#24 COc1ccc(NC(=O)CSc2nc(-c3cccs3)cc(C(F)(F)F)n2)cc1Cl
  A = nt	B = 24%	C = 23µM*	D = 16µM*	E = 2%

#25 O=C(NP(=O)(N1CC1)N1CC1)c1cc(I)ccc1I
  A = 7%	B = nt	C = 2.3µM*	D = 1.5µM*	E = nt

#26 Cc1cc(C(=O)NP(=O)(N2CCOCC2)N2CCOCC2)c(C)n1C1CC1
  A = 32%	B = -6%	C = -3%	D = 1%	E = 0%

#27 Cc1ccc(C(=O)Nc2ncc([N+](=O)[O-])s2)cc1
  A = ?	B = ?	C = 18µM*	D = 23µM*	E = nt

#28 COc1ccc2nc(NC3=NCCN3)sc2c1
  A = -6%	B = -66%	C = -3%	D = 4%	E = 3%

#29 COC(=O)C1=C(c2ccc(OC)c(OC)c2)C[C@@H]2CC[C@H]1N2C(=O)NCc1cc(C)oc1C(F)(F)F
  A = -2%	B = nt	C = -23%	D = -8%	E = 1%

#30 CCC(C)/C=C(C)/C=C/C1=CC2=C(Cl)C(=O)C(C)(OC(C)=O)C(=O)C2=CO1 (stereo unspecified)
  A = -3%	B = -27%	C = ?	D = 15µM*	E = 12%

#31 CC[C@H](C)/C=C(C)/C=C/C1=CC2=C(Cl)C(=O)[C@@](C)(OC(C)=O)C(=O)C2=CO1
  A = -12%	B = nt	C = ?	D = ?	E = nt

#32 CCC1C2CC3C4N(C)c5ccccc5[C@]45CC(C2C5O)N3C1O (stereo partly specified)
  A = nt	B = nt	C = 0.37µM*	D = 0.46µM*	E = 12%[56.1 µM]

#33 CC[C@H]1C2CC3[C@@H]4N(C)c5ccccc5[C@]45C[C@@H](C2[C@H]5O)N3[C@@H]1O (stereo partly specified)
  A = nt	B = nt	C = -7%	D = -2%	E = 14%[56.1 µM]

#34 CCOc1cc(-c2ccc(N)c(OCC)c2)ccc1N
  A = 5%	B = -3%	C = ?	D = 12µM*	E = -1%

#35 CCC1(C)CC(=O)NC(=O)C1
  A = nt	B = nt	C = 4%[21.1 µM]	D = 0%[21.1 µM]	E = 2%[56.1 µM]

#36 CCCCCCCCCCCCC/C=C/[C@@H](O)[C@@H](N)COP(=O)([O-])OCC[N+](C)(C)C
  A = nt	B = nt	C = nt	D = nt	E = -2%

#37 Clc1ccc(C2N3CCCN23)c(Cl)c1 (stereo unspecified)
  A = 3%	B = 2%	C = -15%	D = -9%	E = -2%

#38 CN1CCN(CCOC2c3ccccc3CSc3ccc(Cl)cc32)CC1 (stereo unspecified)
  A = -16%	B = 27%	C = 16µM*	D = ?	E = 8%

#39 Clc1ccc2c(c1)C(OC1CN3CCC1CC3)c1ccccc1CS2 (stereo unspecified)
  A = ?	B = ?	C = 15µM*	D = 16µM*	E = 7%

#40 CN(C)CCSC1c2ccccc2CSc2ccccc21 (stereo unspecified)
  A = -19%	B = nt	C = ?	D = ?	E = nt

#41 C=Cc1ccc(Cn2c(C)c(CNCCc3cc(OC)ccc3OC)c(C(=O)O)c2C)cc1
  A = nt	B = -4%	C = 13µM*	D = ?	E = 8%

#42 CC(C)C(O)(C(=O)OC[C@@H]1CC[N+]2([O-])CCCC12)C(C)O (stereo partly specified)
  A = nt	B = nt	C = 5%[9.04 µM]	D = -5%[9.04 µM]	E = 0%

#43 Cn1cc(NC(=O)CCl)cn1
  A = -9%	B = 22%	C = ?	D = ?	E = 4%

Limited to TDP1 cell noCPT (four entries from above):
nr	smiles	TDP1 cell noCPT
37	Clc1ccc(C2N3CCCN23)c(Cl)c1 (stereo unspecified)	-15%
40	CN(C)CCSC1c2ccccc2CSc2ccccc21 (stereo unspecified)	?
41	C=Cc1ccc(Cn2c(C)c(CNCCc3cc(OC)ccc3OC)c(C(=O)O)c2C)cc1	13µM*
33	CC[C@H]1C2CC3[C@@H]4N(C)c5ccccc5[C@]45C[C@@H](C2[C@H]5O)N3[C@@H]1O (stereo partly specified)	-7%
